High-throughput results: PubChem, National Center for Advancing Translational Sciences (NCATS)
The list is not random: actives were taken first. Their share in the collection is about 13%.
KDM4E inh: JMJD2E (human) inhibition. JMJD2E catalytic domain, FDH-coupled NADH fluorescence (FDH is formaldehyde dehydrogenase). Potency, µM (doses to about 57.1 µM), for the others: at the highest dose activity change, negative = inhibition, usual class: inhibitors. 1.6% of 230,000 active. AID 2147; active means well fitted inhibition curve with a large enough effect, not every such curve was filed as active; inconclusive means small, poorly fitted or top-dose-only effect, or another doubt; inactive means no such curve, though single readings can be large or run the other way;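 further: potency means the concentration at half of the fitted maximal effect; 0% = wells with enzyme and -100% = buffer wells without enzyme; nearly all actives have a fitted effect of over 50% in size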
G9a block: G9a (human) methyltransferase inhibition. Q96KQ7. G9a H3K9 monomethylation, AlphaScreen, 2 h. Potency, µM (doses to about 102 µM), inactives show at the top dose activity, negative = inhibition, most hits filed as inhibitors. 8.8% of 350,000 active; further: potency means the concentration at half of the fitted maximal effect; on the % scale 0 is the no-effect control and ±100 the full control effect; nearly all actives have a fitted effect of over 75% in size
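Chemiluminescent proximity detection of H3K9 monomethylation, read after 10 min bead incubation in the dark. Reaction: 20 nM G9a, 500 nM biotin-H3K9 peptide, 20 uM SAM cofactor, 2 h, room temperature, following 15 min enzyme-compound preincubation.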
Lamin A splicing: LMNA splicing modulation | Potency, µM (series often up to 46.1 µM), inactives show top-dose ratio change, negative = inhibition, usual class: inhibitors | HeLa LMNA splicing GFP/RFP minigene ratio, 48 h | AID 1487 | 0.01% of 200,000 active; active means well fitted inhibition curve with a large enough effect in the signal ratio, with a control signal flat, not every such curve was filed as active; inconclusive means small, poorly fitted or top-dose-only effect, or effect the other way, or a change in a side signal; the % refers to the signal ratio; further: potency means the concentration at half of the fitted maximal effect; on the % scale 0 is the no-effect control and ±100 the full control effect
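Read-out is the ratio of GFP to DsRed2 object intensity, acquired by 488 nm laser-scanning cytometry on HeLa lamin A-EGFP minigene reporter cells. Compound incubation 48 hrs at 37 °C in Opti-MEM with 2% FBS; DMSO 0.5% final.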
Sfp PPTase inh: Sfp phosphopantetheinyl transferase inhibition | Q9F4F7 | Biochemical Sfp PPTase activity, qHTS | Potency, µM, inactives show max response, negative = inhibition, usual class: inhibitors | actives 3.5% (n = 310,000) | AID 1490; active = well fitted inhibition curve with a large enough effect; inconclusive = small, poorly fitted or top-dose-only effect, or another doubt; inactive = no such curve, though single readings can be large or run the other way;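 also: the enzyme is Sfp with the accession as filed and its product quenches rhodamine fluorescence; potency is read from the fitted curve at half-maximal effect; 0% = enzyme reaction without inhibitor and -100% = no enzyme wells; top concentration of the series not given in the record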
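After 15 min at room temperature with compound, 15 nM Sfp received 5 uM rhodamine-CoA plus 12.5 uM BHQ-2-ybbR (50 mM Hepes pH 7.6, 10 mM MgCl2). Rate came from the fluorescence difference over 30 min, ex 525/em 598 nm.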
ALDH1A1 block: blocks purified human ALDH1A1 activity. P00352. Purified ALDH1A1, NADH fluorescence, propionaldehyde substrate. Potency, µM (series often up to 75.3 µM), without a hit: top-dose activity, negative = inhibition, usual class: inhibitors. 7.3% of 220,000 active. AID 1030; active means well fitted inhibition curve with a large enough effect, not every such curve was filed as active; inconclusive means small, poorly fitted or top-dose-only effect, or another doubt; inactive means no such curve, though single readings can be large or run the other way;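 further: potency means the concentration at half of the fitted maximal effect; plate controls were no enzyme wells and a reference inhibitor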
miR-21 reporter: raises the signal of a miR-21 reporter | HeLa miR-21 FLuc reporter, luciferase, 48 h | Potency, µM (highest dose often 38.3 µM), inactives show at the highest dose reporter change, positive = more light | 340,000 tested, under 10 active | AID 2288; active = well fitted rising curve with a large enough effect; inconclusive = small, poorly fitted or top-dose-only effect; inactive = no such curve, though single readings can be large or run the other way;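 note: % of control where 0% means no effect; miR-21 action dims this reporter so a rising signal means less miR-21 action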
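HeLa cells stably expressing CMV-driven firefly luciferase with a downstream miR-21 binding sequence, endogenously expressing miR-21, were treated with titrations (up to about 40uM final) for 48 hours at 37 degree Celsius. Luciferase luminescence was read after lysis.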
Starred values were filed as active, the others as inactive; ? = inconclusive; . = not tested or not shown; [ ] = dose if it differs, or a comment. Unless noted, the call rests on the fitted dose curve; in most records, active means well fitted curve in the direction sought with a large enough effect; inconclusive means small, poorly fitted or top-dose-only effect, or another doubt; inactive means no such curve, though single readings can be large; an effect the other way counts as inactive or inconclusive.

nr | KDM4E inh | G9a block | Lamin A splicing | Sfp PPTase inh | ALDH1A1 block | miR-21 reporter | mol
1 | . | -29% | . | 6% | . | 0% | O=C1CSC(c2ccc([N+](=O)[O-])cc2)N1c1ccc(O)cc1 (stereo not drawn)
2 | . | -5%[59 µM] | . | . | . | 11% | CC(C)c1ccc(CNCCSc2nnnn2-c2ccccc2)cc1
3 | 15% | -1%[59 µM] | ? | 1% | 1µM* | 0% | Cc1ccc(S(=O)(=O)NCCSc2nnnn2-c2ccccc2)cc1
4 | 1% | 11µM* | -9% | -28% | -4% | 0% | COc1cc(NC(=O)C2C3C=CC(C3)C2C(=O)O)c(OC)cc1Cl (stereo not drawn)
5 | 8% | -9%[12.7 µM] | -10% | -9% | -5% | 0% | COc1cc([N+](=O)[O-])ccc1NC(=O)CN(C)C
6 | . | . | . | -10% | . | 1% | O=C(O)C1C2C=CC(C2)C1C(=O)Nc1ccccc1Br (stereo not drawn)
7 | . | -2% | . | 89µM* | . | -17% | COc1cc(NC(=O)C2C3C=CC(C3)C2C(=O)O)ccc1NC(=O)c1ccccc1 (stereo not drawn)
8 | . | -4%[0.501 µM] | . | 32µM* | . | -1% | COc1cc([N+](=O)[O-])ccc1NC(=O)C1C2C=CC(C2)C1C(=O)O (stereo not drawn)
9 | . | 22µM* | . | 50µM* | . | -7% | CN(C)c1ccc(NC(=O)C2C3C=CC(C3)C2C(=O)O)cc1 (stereo not drawn)
10 | 5% | -38% | 9% | -24% | -1% | -3% | COc1ccc(C)cc1NC(=O)C1C2C=CC(C2)C1C(=O)O (stereo not drawn)
11 | -9% | . | -7% | -5% | -3% | . | COC(=O)CC1[C@@]2(C)C[C@@]34OC5(C)OC6(CC[C@@]7(C)C(c8ccoc8)OC(=O)C(C(C)=O)C7[C@]6(O5)C(O)[C@@]3(O)C2O)[C@]14C (stereo partly drawn)
12 | . | -32% | . | . | . | . | COc1ccc(S(=O)(=O)N2CCCCCC2)cc1NC(=O)CC1OC(=O)c2ccccc21 (stereo not drawn)
13 | . | 45µM* | . | 14% | . | -4% | O=C(Cc1ccccc1F)Nc1cc(Cl)ccc1N1CCCC1
14 | . | 79µM* | . | 6% | . | 2% | Cc1cccc(NC(=O)CSCC(=O)Nc2cc(Cl)ccc2N2CCN(C)CC2)c1
15 | . | 28%[12.7 µM] | . | . | . | . | Cc1cc(NC(=O)CSCC(=O)Nc2cc(Cl)ccc2N2CCN(C)CC2)no1
16 | . | 13µM* | . | . | . | . | O=C(CC1OC(=O)c2ccccc21)Nc1cc(S(=O)(=O)N2CCOCC2)ccc1OCC(F)(F)F (stereo not drawn)
17 | -3% | 40µM* | ? | -23% | 5µM* | -5% | CC(=O)N1CCN(C(=O)CC2OC(=O)c3ccccc32)CC1 (stereo not drawn)
18 | 0% | -21% | 1% | 2% | -7% | 0% | O=C(CC1OC(=O)c2ccccc21)Nc1ccccc1N1CCOCC1 (stereo not drawn)
19 | . | . | . | 6% | 1%[13.5 µM] | . | COC(=O)NC(CC(C)=O)c1cccc(C(F)(F)F)c1 (stereo not drawn)
20 | . | 13%[59 µM] | . | . | . | -18% | Cc1ccc(OCC(=O)Nc2ccc3nn(-c4ccc(C)cc4)nc3c2)cc1
21 | 3% | . | ? | 8% | -2% | . | N#Cc1cccc(-c2nc(N3CCNCC3)c3ccccc3n2)c1
22 | . | ? | . | 3% | . | -1% | O=C(CC1OC(=O)c2ccccc21)Nc1cccc(S(=O)(=O)N2CCCCCC2)c1 (stereo not drawn)
23 | . | 56µM* | . | . | . | . | O=C(CC1OC(=O)c2ccccc21)Nc1cc(Cl)ccc1N1CCCC1 (stereo not drawn)
24 | . | 14µM* | . | . | . | . | O=C(CC1OC(=O)c2ccccc21)Nc1ccc(Cl)c(S(=O)(=O)N2CCCCC2)c1 (stereo not drawn)
25 | . | 12%[59 µM] | . | . | . | -2% | CCc1ccc(-n2c(=O)c3cccnc3n2CC(=O)Nc2ccccc2C(F)(F)F)cc1

3 compounds out of the list, arranged by formula weight, lowest first:
nr | KDM4E inh | G9a block | Lamin A splicing | Sfp PPTase inh | ALDH1A1 block | miR-21 reporter | mol
10 | 5% | -38% | 9% | -24% | -1% | -3% | COc1ccc(C)cc1NC(=O)C1C2C=CC(C2)C1C(=O)O (stereo not drawn)
16 | . | 13µM* | . | . | . | . | O=C(CC1OC(=O)c2ccccc21)Nc1cc(S(=O)(=O)N2CCOCC2)ccc1OCC(F)(F)F (stereo not drawn)
11 | -9% | . | -7% | -5% | -3% | . | COC(=O)CC1[C@@]2(C)C[C@@]34OC5(C)OC6(CC[C@@]7(C)C(c8ccoc8)OC(=O)C(C(C)=O)C7[C@]6(O5)C(O)[C@@]3(O)C2O)[C@]14C (stereo partly drawn)

Continued:
nr | KDM4E inh | G9a block | Lamin A splicing | Sfp PPTase inh | ALDH1A1 block | miR-21 reporter | mol
26 | . | -3%[59 µM] | 17%[46 µM] | . | . | -76% | Cc1ccc(-n2nnc(-c3nsc(NC(=O)c4ccccc4)n3)c2C)cc1
27 | -7% | ? | -9% | 40µM* | 4.5µM* | -14% | Cc1nc(-c2cccc(S(=O)(=O)N3CCOCC3)c2)cs1
28 | . | 10µM* | . | . | . | . | Cc1nc(-c2cccc(NC(=O)c3cccc(S(=O)(=O)N4CCCC4)c3)c2)cs1
29 | 0% | 10µM* | 2% | ? | ? | 1% | O=c1oc(-c2cccc(S(=O)(=O)N3CCOCC3)c2)nc2ccccc12
30 | -1% | -4%[2.33 µM] | 16% | -6% | ? | -5% | O=S(=O)(c1cccc(-c2csc(-c3cccnc3)n2)c1)N1CCCCC1
31 | -19% | 71µM* | . | -3% | . | -10% | O=S(=O)(c1cccc(-c2csc(-c3cccnc3)n2)c1)N1CCOCC1
32 | . | -3%[59 µM] | . | . | . | -6% | CCc1ccc(C2c3c(oc4ccc(F)cc4c3=O)C(=O)N2CCc2ccc(OC)cc2)cc1 (stereo not drawn)
33 | . | . | . | -1% | . | 0% | CCOc1cc(NC(=O)C(C)C)c(OCC)cc1NC(=O)Nc1ccccc1
34 | . | -10%[59 µM] | . | . | . | . | CCN(CC)S(=O)(=O)c1ccc(/C=C/C(=O)OCC(=O)NCc2cccs2)cc1
35 | . | -33%[59 µM] | 2%[46 µM] | . | . | -4% | COc1ccc(NC(=O)COCc2cc(-c3ccco3)on2)cc1Cl
36 | . | 11% | . | 12% | . | 27% | CCOC(=O)N1CCN(c2ccnc3cc(Cl)ccc23)CC1
37 | 1% | 1%[59 µM] | ? | -23% | 5µM* | 2% | O=C(Oc1ccnc2cc(Cl)ccc12)N1CCCCCC1
38 | . | 45µM* | . | 7% | . | -50% | CC(=O)Nc1ccc(SCCCC(=O)c2ccccc2)cc1
39 | . | 28% | . | 10% | . | -9% | CC(=O)c1cccc(NC(=O)CCCSc2ccccc2)c1
40 | ? | 32µM* | 6%[46 µM] | -6% | ? | 5% | O=C(CSCc1ccccc1)Nc1cc([N+](=O)[O-])ccc1F
41 | 4% | -8%[59 µM] | . | 11% | 1.6µM* | 4% | COc1ccc(C(=O)NCC(=O)OCC(=O)Nc2cc([N+](=O)[O-])ccc2F)cc1
42 | 25µM* | 16% | ? | -5% | -4% | 4% | C/C(=N\NC(=O)c1cc(-c2cccc([N+](=O)[O-])c2)n[nH]1)c1ccccc1O
43 | -6% | -21% | -8% | -11% | ? | 1% | COc1ccc([N+](=O)[O-])cc1NC(=O)CSCc1ccccc1
44 | -2% | 25µM* | ? | -13% | ? | 10% | Cc1ccc2nc(SCC(=O)Nc3cc([N+](=O)[O-])ccc3F)[nH]c2c1
45 | . | 10% | . | 9% | . | 2% | C/C(=N\NC(=O)C(C)Sc1ccccc1)c1ccc([N+](=O)[O-])cc1 (stereo not drawn)
46 | . | 10%[59 µM] | 5%[46 µM] | . | . | 10% | CN(CC(=O)Nc1cccc(C#N)c1)S(=O)(=O)c1cc2c(cc1Cl)NC(=O)CO2
47 | . | -30%[59 µM] | . | . | . | -6% | COc1ccc(-c2nnc(SCC(=O)N(C)C3CCCCC3)o2)cc1OC

Part of the list above with just G9a block:
no. | SMILES | G9a block
37 | O=C(Oc1ccnc2cc(Cl)ccc12)N1CCCCCC1 | 1%[59 µM]
38 | CC(=O)Nc1ccc(SCCCC(=O)c2ccccc2)cc1 | 45µM*
39 | CC(=O)c1cccc(NC(=O)CCCSc2ccccc2)c1 | 28%
